Measurements reported in patent US9371319B2, “Pyrrolopyridineamino derivatives as MPS1 inhibitors” (priority 2011, dated 2016).

Chains of the proteins cited; added tags and fusions are not shown.
UniProt P33981, whole entry: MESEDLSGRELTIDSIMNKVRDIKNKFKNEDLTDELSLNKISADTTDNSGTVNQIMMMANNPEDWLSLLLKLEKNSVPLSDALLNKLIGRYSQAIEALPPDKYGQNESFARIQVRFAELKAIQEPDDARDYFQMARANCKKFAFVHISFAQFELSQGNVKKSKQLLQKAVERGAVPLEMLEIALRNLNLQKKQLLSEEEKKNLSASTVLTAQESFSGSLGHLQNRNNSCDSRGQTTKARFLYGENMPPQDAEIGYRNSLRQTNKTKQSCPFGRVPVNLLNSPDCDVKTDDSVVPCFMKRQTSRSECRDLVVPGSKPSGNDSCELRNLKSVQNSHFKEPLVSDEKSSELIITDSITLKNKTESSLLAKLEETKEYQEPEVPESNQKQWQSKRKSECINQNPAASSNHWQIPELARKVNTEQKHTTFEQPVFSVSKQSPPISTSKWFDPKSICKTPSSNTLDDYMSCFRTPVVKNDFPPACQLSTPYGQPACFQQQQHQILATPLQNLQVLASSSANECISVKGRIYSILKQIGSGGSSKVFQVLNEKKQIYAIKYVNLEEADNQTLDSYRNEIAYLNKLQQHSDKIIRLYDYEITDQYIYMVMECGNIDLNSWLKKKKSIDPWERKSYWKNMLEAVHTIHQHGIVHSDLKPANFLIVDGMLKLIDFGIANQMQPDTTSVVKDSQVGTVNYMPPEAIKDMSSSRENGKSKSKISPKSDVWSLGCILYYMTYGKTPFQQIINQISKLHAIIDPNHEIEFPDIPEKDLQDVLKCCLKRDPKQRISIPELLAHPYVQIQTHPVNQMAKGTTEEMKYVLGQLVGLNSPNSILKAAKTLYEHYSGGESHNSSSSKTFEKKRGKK

Target: full length MPS1 (Homo sapiens, UniProt P33981)

In the case of `COc1nc(-c2cnn(C)c2)ncc1Nc1cc2c(cn1)cc(-c1cnn(C)c1)n2C(=O)OC(C)C`, the IC50 is reported as 0.014 µM.
